This assay has as its target wild-type H6-PKA-Cα, untreated (alpha isoform of the catalytic subunit of cAMP-dependent protein kinase) (murine, UniProt P05132 2-351). As to the kind of experiment: SPR; OpenSPR-XT; CREBtide coupled to a carboxyl sensor; PKA-Cα flowed at 75 µL/min; 1X HBS-P+, 10 mM MgCl2, 0.01% NP-40, 0.5% BSA, 10 µM AMP-PNP, pH 7.4; kinetics analysis; apparent. Particulars: both partners purified. For orientation: SPR reads the build-up and loss of mass on a sensor chip optically.

B1: CREBtide (peptide)
peptide: KRREILSRRPSYR
notes: Coupled by EDC/sulfo-NHS to the carboxyl sensor in SPR; source: bought: Alfa Aesar
For B1, the off-rate constant (koff) (in general, the first-order rate constant of dissociation) is 0.0163 ± 0.25 s⁻¹ and the on-rate (kon) (commonly the second-order rate constant of association) was determined as 6710 ± 1.21 M⁻¹ s⁻¹.

The values are drawn from PMC10532679 (Life, 2023).
